Chains of the proteins cited; added tags and fusions are not shown. Residues count along the entry.
UniProt P02708, 21-457: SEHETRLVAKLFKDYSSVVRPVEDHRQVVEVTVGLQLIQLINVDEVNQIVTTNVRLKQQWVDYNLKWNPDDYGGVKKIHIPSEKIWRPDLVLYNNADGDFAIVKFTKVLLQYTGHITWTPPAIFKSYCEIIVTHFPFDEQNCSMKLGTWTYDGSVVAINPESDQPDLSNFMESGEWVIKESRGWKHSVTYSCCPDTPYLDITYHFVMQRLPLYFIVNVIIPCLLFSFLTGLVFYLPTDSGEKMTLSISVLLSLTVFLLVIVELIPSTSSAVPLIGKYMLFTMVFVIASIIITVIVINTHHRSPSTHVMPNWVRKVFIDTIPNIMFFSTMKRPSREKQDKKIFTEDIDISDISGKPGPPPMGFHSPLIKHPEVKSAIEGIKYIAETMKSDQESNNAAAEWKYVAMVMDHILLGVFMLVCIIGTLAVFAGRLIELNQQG
UniProt P07510, 23-517: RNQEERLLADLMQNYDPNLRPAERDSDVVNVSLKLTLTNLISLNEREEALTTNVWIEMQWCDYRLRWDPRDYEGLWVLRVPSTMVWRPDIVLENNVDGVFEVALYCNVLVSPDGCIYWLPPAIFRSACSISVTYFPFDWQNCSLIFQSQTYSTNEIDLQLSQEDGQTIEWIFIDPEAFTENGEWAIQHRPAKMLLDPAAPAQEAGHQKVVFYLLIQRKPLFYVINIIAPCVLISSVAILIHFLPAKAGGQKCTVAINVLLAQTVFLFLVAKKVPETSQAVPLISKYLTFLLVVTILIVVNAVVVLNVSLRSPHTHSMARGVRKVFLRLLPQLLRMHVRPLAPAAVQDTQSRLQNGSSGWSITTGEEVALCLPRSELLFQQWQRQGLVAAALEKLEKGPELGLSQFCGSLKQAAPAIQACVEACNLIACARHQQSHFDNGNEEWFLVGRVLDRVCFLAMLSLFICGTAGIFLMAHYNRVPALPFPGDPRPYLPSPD
UniProt Q07001, 22-517: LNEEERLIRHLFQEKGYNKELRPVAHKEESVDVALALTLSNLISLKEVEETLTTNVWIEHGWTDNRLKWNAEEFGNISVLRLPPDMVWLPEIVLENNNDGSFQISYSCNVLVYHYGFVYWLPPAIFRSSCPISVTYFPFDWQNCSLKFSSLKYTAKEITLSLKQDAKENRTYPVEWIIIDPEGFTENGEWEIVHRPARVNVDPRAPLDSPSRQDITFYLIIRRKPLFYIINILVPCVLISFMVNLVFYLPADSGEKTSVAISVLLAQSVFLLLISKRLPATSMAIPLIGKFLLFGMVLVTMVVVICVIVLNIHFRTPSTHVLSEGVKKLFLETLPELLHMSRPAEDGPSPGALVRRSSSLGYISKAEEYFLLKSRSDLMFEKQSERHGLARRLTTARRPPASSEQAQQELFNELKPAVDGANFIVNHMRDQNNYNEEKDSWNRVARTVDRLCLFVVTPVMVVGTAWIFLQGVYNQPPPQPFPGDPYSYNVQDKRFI

According to patent US6525065B1, “Pharmaceutical compositions and methods for effecting dopamine release” (priority 1997, dated 2003):

Columns and labels:
[1] = tested on: dopamine release; experiment: cells; assay type: cell-based; conditions: for amounts causing muscle effects and effects upon ganglia relative to those required to cause dopamine release: selectivity of dopamine release over muscle and ganglion effects
[2] = biological target: T1, muscle-type nicotinic acetylcholine receptors (Homo sapiens, UniProt P02708+P07510+Q07001); assay type: cell-based
T1 construct: endogenous in cells; host or cells: TE671/RD (own knowledge of the cited US 5,597,919)

SMILES | amounts causing muscle effects and effects upon ganglia relative to those required to cause dopamine release [1] | Dopamine Release Ecmax [1] [%] | pEC50 ([1]; read-out: Dopamine Release EC50) | Muscle Effect Ecmax [2] [%]
Brc1cncc(C2CC3CCN2CC3)c1 (racemic) [Sample No. 2] | many times | – | – | –
CC(C)Oc1cncc(C2CC3CCN2CC3)c1 (centres unmarked) [Sample No. 8, 5-(1-azabicyclo[2.2.2]oct-2-yl-3-(isopropyloxy)pyridinedihydrochloride] | many times | 31 | 7.51 | 115

pEC50: −log10 of the molar value. Counter-ions that a name gives are not always drawn.
